# Experimental data as given in patent publication US9744212B2, “Galectin-3C combination therapy for human cancer” (Texas Tech University System, priority 2011, dated 2017).
# Key:
# HUVEC = HUVEC chemotaxis (migration) toward U266 conditioned media; assay type: cell-based, human; details: U266 treated 48 h with 10 μg/mL Gal-3C, 5 nM Bor or both; 20% conditioned medium; ANOVA, Tukey's post-test
# Protocol: Chemotaxis of HUVEC Cells. Chemotaxis (migration) was analyzed with HUVEC cells as a measure of angiogenic potential as reported (86), using 50×10^3 cells/well and 24-well transwell inserts with 8-μm pores. The lower chamber was filled with 600-μl EGM-2 medium supplemented with 20% V/V conditioned medium, obtained after treatment of U266 cells with 10 μg/mL Gal-3C, 5 nM Bor, or 10 μg/mL Gal-3C with 5 nM Bor for 48 hour, or with 0.6% VN PBS (Gal-3C and Bor vehicle) as a control. As a negative control, EGM-2 medium alone was used. After incubation for 16 h, cells were removed from the upper chamber, and the migrated cells were visualized on the lower side of the filter after fixing and staining with 30% methanol, 10% acetic and 0.1% Coomassie Brilliant Blue. […] The average number of cells in 4 random fields per filter was calculated. The studies were run in triplicate and the results are expressed as a migration index (MI), as follows: MI=number of cells migrated in the presence of conditioned medium/number of cells migrated in the presence of EGM-2 alone. […]
# FIG. 3A is a graph of the results from the vascular endothelial cell migration assay. […] Mean migration indexes (left; ±95% C.I.) expressed as the number of cells migrated in the presence of the indicated stimulus divided by the number of cells migrated in the presence of EBM-2 alone. […]
# [1] = tested on: U266 MM subcutaneous tumors; assay: U266 subcutaneous tumor model of MM in NOD/SCID mice; assay type: in vivo; details: day 35; Gal-3C 30 μg/d/mouse by mini-osmotic pump; Bor six doses of 15 μg via tail vein
# Text: Animals: Six-week-old female NOD.CB17-Prkdcscid/J (NOD/SCID) mice were obtained from the Jackson Laboratory (Bar Harbor, Me.). All mice were maintained in filtered-air laminar-flow cabinets under specific pathogen-free conditions. Treatment and care were in accordance with the Institutional Guidelines and the Animal Welfare Assurance Act. All mice were euthanized before they were 10 weeks of age. Testing Gal-3C and Bonin NOD/SCID mouse model of MM: Prior to injection, U266 cells were washed once in Dulbecco's PBS (Sigma-Aldrich), counted, and adjusted to the appropriate density with additional PBS prior to inoculation. […] The primary tumors were measured with a pair of calipers once a week. […] Flow cytometric analysis: The expression of AKAP-4, human IgE, IgG, (heavy chain) k, and A light chains was analyzed by cytofluorimetric techniques as previously described (39). […] Analysis was performed using a fluorescence-activated cell scanner (BD Biosciences). ELISA for human AKAP-4, IgG, E, k, and ? light chain: Blood was collected from each mouse once a week, and an enzyme-linked immunoabsorbent assay (ELISA) was performed on the sera to quantify human AKAP-4, IgG, IgE, k, and ? light chain levels as reported 26. […] Signal intensity was measured on a Victor 2 multimodal microplate reader (PerkinElmer, Mass., USA) at 450 nm. […]
structure (smiles),measurement,setting,value
"CC(C)C[C@H](NC(=O)[C@H](Cc1ccccc1)NC(=O)c1cnccn1)B(O)O [Bor, bortezomib, reference compound]",migration index compared with controls,HUVEC,no significant difference
same,average tumor volume relative to that of the untreated controls,[1],19.6%
